The values that follow come from paper PMC5833756, “A novel ruthenium complex with xanthoxylin induces S-phase arrest and causes ERK1/2-mediated apoptosis in HepG2 cells through a p53-independent pathway” (Cell Death & Disease, 2018).

The subject of the series is AGP-01.

Read-outs that look alike come from different tables or passages of the source.

Regarding `COc1cccc2c1C(=O)c1c(O)c3c(c(O)c1C2=O)C[C@@](O)(C(=O)CO)C[C@@H]3O[C@H]1C[C@H](N)[C@H](O)[C@H](C)O1` [DOX, doxorubicin], the “selectivity index (SI)” value is 0.7 (IC50 MRC5 / IC50 AGP-01) and 2.7 (IC50 PBMC / IC50 AGP-01).
